Measurements from patent publication US20030017565A1, “COMPOSITION AND METHOD FOR TREATING A POROUS ARTICLE AND USE THEREOF” (priority 1996, published 2003).

Experiment: leaching of Japan cedar blocks, liquid treatment agent stored 2 weeks (Example 21)
Type: physicochemical
Conditions: liquid agent stored airtight 2 weeks, diluted 10-fold; species as bracketed (Copper, Zinc, Nickel, Boron, H = hinokitiol), else the agent named
Experimental: Further, 6 g of the powdery treatment agent obtained in the same manner as described above was dissolved in 12 ml of deionized water to obtain a liquid treatment agent for a porous article. The liquid treatment agent was transferred into a 20 ml screw capped test tube. After the test tube stand airtightly at room temperature for 2 weeks, the liquid treatment agent was diluted 10-fold with deionized water to prepare a solution for treating a porous article. Japan cedar wood blocks were subjected to reduced pressure impregnation treatment with the solution thus obtained, drying/macromolecularization reaction, and elution treatment in the same manner as in Examples 3 and 4. The amounts of the lignosulfonic acid which were eluted were calculated and compared taking the amounts of it injected upon the impregnation treatment as 100%. The results are shown in Table 13, from which it can be seen that even with the liquid treatment agent, effective treatment of porous articles is possible.

OB(O)O [Boric acid (2 g), Boric acid]
Elution Rate (%) Chemical Agent: 17.8%
